Source: patent publication US20120207856A1, “MSH3 Expression Status Determines the Responsiveness of Cancer Cells to the Chemotherapeutic Treatment with PARP Inhibitors and Platinum Drugs” (Baylor Research Institute, priority 2011, published 2012)

Test system: HCT116+3+5 and G5 cells
Assay: Clonogenic survival after MLH1 siRNA transfection
Type: cell-based, human
Conditions: HCT116+3+5 and G5 transfected with MLH1 siRNA versus untreated control cell lines; FIG. 4B

N-Methyl-N-Nitro-N-Nitrosoguanidine
resistance (clonogenic survival): more resistant
